Experimental findings from PMC6554663, “Pharmaceutical Effects of Inhibiting the Soluble Epoxide Hydrolase in Canine Osteoarthritis” (Frontiers in Pharmacology, 2019) are described below.

Converted amounts (≈) assume the structure as drawn.

A short description of the data set: Solubility of sEHI. The format is physicochemical. The following applies: phosphate buffered saline, pH 7.4; in PBS; read-out: water solubility. How it is done: […] The non-dissolved compounds were filtered through a 0.22 μm centrifuge filter at 40°C and the supernatant was further diluted 10 times with methanol. The samples were analyzed by LC/MS-MS.

`O=C(Nc1ccc(OC(F)(F)F)cc1)N[C@H]1CC[C@H](Oc2ccc(C(=O)O)cc2)CC1` [EC1728, trans-4-{4-[3-(4-trifluoromethoxy-phenyl)-ureido]-cyclohexyloxy}-benzoic acid]: the solubility at 24 h amounted to 5 µg/mL (≈ 11.4 µM).
